Each structure is given as a SMILES string.

Amino acid sequences for entries named in this document (tags omitted). Residues count along the entry.
UniProt P03372, 307-554: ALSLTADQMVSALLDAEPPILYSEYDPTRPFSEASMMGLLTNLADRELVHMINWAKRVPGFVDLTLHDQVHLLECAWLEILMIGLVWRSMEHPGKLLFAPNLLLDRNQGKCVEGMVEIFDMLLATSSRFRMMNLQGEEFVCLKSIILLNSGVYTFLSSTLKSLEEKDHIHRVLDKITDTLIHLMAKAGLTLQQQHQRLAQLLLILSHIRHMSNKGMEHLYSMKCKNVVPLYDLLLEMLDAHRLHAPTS

The target in the assay is recombinant human Estrogen Receptor alpha ligand binding domain (ER alpha-LBD (GST)) (Homo sapiens (Human), UniProt P03372). Description: ERα binding assay (LanthaScreen TR-FRET competition). The note with it: read-out: ER binding IC50 value, 50% reduction in tracer binding to ER alpha-LBD.
In general, IC50 refers to the concentration at which inhibition is half-maximal. Take `C[C@@H]1Cc2c([nH]c3ccccc23)[C@@H](c2cnc(OCCNCCCF)cn2)N1CC(C)(C)F` [Example 38, 3-fluoro-N-(2-((5-((1S,3R)-2-(2-fluoro-2-methylpropyl)-3-methyl-2,3,4,9-tetrahydro-1H-pyrido[3,4-b]indol-1-yl)pyrazin-2-yl)oxy)ethyl)propan-1-amine]: the half-maximal inhibitory concentration (IC50) came to 1.9 nM.

For `COc1cc(OCCNCCCF)ncc1[C@@H]1c2[nH]c3ccccc3c2C[C@@H](C)N1CC1(F)COC1` [Example 7, 3-fluoro-N-(2-((5-((1R,3R)-2-((3-fluorooxetan-3-yl)methyl)-3-methyl-2,3,4,9-tetrahydro-1H-pyrido[3,4-b]indol-1-yl)-4-methoxypyridin-2-yl)oxy)ethyl)propan-1-amine], the IC50 was found to be 2.1 nM. In the case of `C[C@@H]1Cc2c([nH]c3ccccc23)[C@@H](c2ccc(OCCNCCCF)cc2)N1CC(F)CF` (single isomer, unassigned) [Example 25], the IC50 was found to be 2.2 nM. For `COc1cc(OCCNCCCF)ncc1[C@@H]1c2[nH]c3ccccc3c2C[C@@H](C)N1CC1(F)CC1` [Example 37, 3-fluoro-N-(2-((5-((1R,3R)-2-((1-fluorocyclopropyl)methyl)-3-methyl-2,3,4,9-tetrahydro-1H-pyrido[3,4-b]indol-1-yl)-4-methoxypyridin-2-yl)oxy)ethyl)propan-1-amine], the IC50 is 2.4 nM. Take `C[C@@H]1Cc2c([nH]c3ccccc23)[C@@H](c2c(F)cc(NCCNCCCF)cc2F)N1CC1(F)COC1` [Example 44, N1-(3,5-difluoro-4-((1R,3R)-2-((3-fluorooxetan-3-yl)methyl)-3-methyl-2,3,4,9-tetrahydro-1H-pyrido[3,4-b]indol-1-yl)phenyl)-N2-(3-fluoropropyl)ethane-1,2-diamine]: the IC50 stood at 2.5 nM. The result for `C[C@@H]1Cc2c([nH]c3ccccc23)[C@@H](c2c(F)cc(OCC(CO)NCCCF)cc2F)N1CC(C)(C)F` (single isomer, unassigned) [Example 52] reads 2.2 nM; that for `C[C@@H]1Cc2c([nH]c3ccccc23)[C@@H](c2ccc(OCCNCCCF)cn2)N1CC(C)(C)F` [Example 30, 3-fluoro-N-(2-((6-((1S,3R)-2-(2-fluoro-2-methylpropyl)-3-methyl-2,3,4,9-tetrahydro-1H-pyrido[3,4-b]indol-1-yl)pyridin-3-yl)oxy)ethyl)propan-1-amine], 1.3 nM. For the compound `Cc1cc(OCCNCCCF)ncc1[C@@H]1c2[nH]c3ccccc3c2C[C@@H](C)N1CC(F)F` [Example 63, N-(2-((5-((1R,3R)-2-(2,2-difluoroethyl)-3-methyl-2,3,4,9-tetrahydro-1H-pyrido[3,4-b]indol-1-yl)-4-methylpyridin-2-yl)oxy)ethyl)-3-fluoropropan-1-amine], the IC50 came to 3.1 nM. The result for `CC(CNCCCF)Oc1cc(F)c([C@@H]2c3[nH]c4ccccc4c3C[C@@H](C)N2CC(C)(C)F)c(F)c1` (stereo partly drawn) [Example 19, 2-(3,5-difluoro-4-((1R,3R)-2-(2-fluoro-2-methylpropyl)-3-methyl-2,3,4,9-tetrahydro-1H-pyrido[3,4-b]indol-1-yl)phenoxy)-N-(3-fluoropropyl)propan-1-amine] reads 2.5 nM; that for `COc1cc(NCCNCCCF)ccc1[C@@H]1c2[nH]c3ccccc3c2C[C@@H](C)N1CC1(F)CC1` [Example 60, N1-(4-((1R,3R)-2-((1-fluorocyclopropyl)methyl)-3-methyl-2,3,4,9-tetrahydro-1H-pyrido[3,4-b]indol-1-yl)-3-methoxyphenyl)-N2-(3-fluoropropyl)ethane-1,2-diamine], 14 nM; that for `C[C@@H]1Cc2c([nH]c3ccccc23)[C@@H](c2ccc(OCCNCCCF)cc2)N1C[C@H](F)CF` (single isomer, unassigned) [Example 26], 1.2 nM.

`C[C@@H]1Cc2c([nH]c3ccccc23)[C@@H](c2ccc(OCCNCCCF)cc2C#N)N1CC1(F)CC1` [Example 29, 2-((1R,3R)-2-((1-fluorocyclopropyl)methyl)-3-methyl-2,3,4,9-tetrahydro-1H-pyrido[3,4-b]indol-1-yl)-5-(2-((3-fluoropropyl)amino)ethoxy)benzonitrile]: the IC50 turned out to be 9 nM. The result for `COc1cc(OCCNCCCF)cnc1[C@@H]1c2[nH]c3ccccc3c2C[C@@H](C)N1CC(C)(C)F` [Example 35, 3-fluoro-N-(2-((6-((1S,3R)-2-(2-fluoro-2-methylpropyl)-3-methyl-2,3,4,9-tetrahydro-1H-pyrido[3,4-b]indol-1-yl)-5-methoxypyridin-3-yl)oxy)ethyl)propan-1-amine] reads 1.8 nM; that for `C[C@@H]1Cc2c([nH]c3ccccc23)[C@@H](c2c(F)cc(OCCNCCC(F)F)cc2F)N1CC(C)(C)F` [Example 3, N-(2-(3,5-difluoro-4-((1R,3R)-2-(2-fluoro-2-methylpropyl)-3-methyl-2,3,4,9-tetrahydro-1H-pyrido[3,4-b]indol-1-yl)phenoxy)ethyl)-3,3-difluoropropan-1-amine], 1.1 nM. As for `COc1cc(OCCNCCCF)ccc1[C@@H]1c2[nH]c3ccccc3c2C[C@@H](C)N1CC(C)(F)F` [Example 74, N-(2-(4-((1R,3R)-2-(2,2-difluoropropyl)-3-methyl-2,3,4,9-tetrahydro-1H-pyrido[3,4-b]indol-1-yl)-3-methoxyphenoxy)ethyl)-3-fluoropropan-1-amine], the figure is 2 nM; as for `C[C@@H]1Cc2c([nH]c3ccccc23)[C@@H](c2c(F)cc(NCCNCCCF)cc2F)N1CC1(F)CC1` [Example 9, N^1-(3,5-difluoro-4-((1R,3R)-2-((1-fluorocyclopropyl)methyl)-3-methyl-2,3,4,9-tetrahydro-1H-pyrido[3,4-b]indol-1-yl)phenyl)-N^2-(3-fluoropropyl)ethane-1,2-diamine], 4.8 nM; as for `C[C@@H]1Cc2c([nH]c3ccccc23)[C@@H](c2ccc(OC[C@H](C)NCCCF)cc2)N1CC1(F)COC1` [Example 27, 3-fluoro-N-((S)-1-(4-((1R,3R)-2-((3-fluorooxetan-3-yl)methyl)-3-methyl-2,3,4,9-tetrahydro-1H-pyrido[3,4-b]indol-1-yl)phenoxy)propan-2-yl)propan-1-amine], 2.2 nM.

As for `C[C@H](COc1ccc([C@@H]2c3[nH]c4ccccc4c3C[C@@H](C)N2CC2(F)COC2)cc1)NCCCF` [Example 28, 3-fluoro-N-((R)-1-(4-((1R,3R)-2-((3-fluorooxetan-3-yl)methyl)-3-methyl-2,3,4,9-tetrahydro-1H-pyrido[3,4-b]indol-1-yl)phenoxy)propan-2-yl)propan-1-amine], the IC50 is 6.2 nM.

With `C[C@@H]1Cc2c([nH]c3ccccc23)[C@@H](c2c(F)cc(OCC(CO)NCCCF)cc2F)N1CC(C)(C)F` (single isomer, unassigned) [Example 53], the IC50 stood at 2.8 nM. The result for `C[C@@H]1Cc2c([nH]c3ccccc23)[C@@H](c2cnc(OCCNCCCF)cn2)N1CC(F)(F)CO` [Example 69, 2,2-difluoro-3-((1S,3R)-1-(5-(2-((3-fluoropropyl)amino)ethoxy)pyrazin-2-yl)-3-methyl-1,3,4,9-tetrahydro-2H-pyrido[3,4-b]indol-2-yl)propan-1-ol] reads 0.97 nM. As for `C[C@@H]1Cc2c([nH]c3ccccc23)[C@@H](c2ccc(OCCNCCCF)nc2)N1CC1(F)CC1` [Example 33, 3-fluoro-N-(2-((5-((1R,3R)-2-((1-fluorocyclopropyl)methyl)-3-methyl-2,3,4,9-tetrahydro-1H-pyrido[3,4-b]indol-1-yl)pyridin-2-yl)oxy)ethyl)propan-1-amine], the figure is 2.5 nM; as for `COc1cc(NCCNCCCF)ncc1[C@@H]1c2[nH]c3ccccc3c2C[C@@H](C)N1CC(F)F` [Example 67, N1-(5-((1R,3R)-2-(2,2-difluoroethyl)-3-methyl-2,3,4,9-tetrahydro-1H-pyrido[3,4-b]indol-1-yl)-4-methoxypyridin-2-yl)-N2-(3-fluoropropyl)ethane-1,2-diamine], 2.5 nM; as for `C[C@@H]1Cc2c([nH]c3ccccc23)[C@@H](c2c(F)cc(OCCNCCCF)cc2F)N1CC(C)(F)CO` (single isomer, unassigned) [Example 18], 2.3 nM. As for `CC(C)CN1[C@H](c2ccc(OCCNCCC(F)F)cc2)c2[nH]c3ccccc3c2C[C@H]1C` [Example 1, 3,3-difluoro-N-(2-(4-((1R,3R)-2-isobutyl-3-methyl-2,3,4,9-tetrahydro-1H-pyrido[3,4-b]indol-1-yl)phenoxy)ethyl)propan-1-amine], the figure is 6.6 nM; as for `COc1nc(NCCNCCCF)ccc1[C@@H]1c2[nH]c3ccccc3c2C[C@@H](C)N1CC(C)(F)F` [Example 78, N1-(5-((1R,3R)-2-(2,2-difluoropropyl)-3-methyl-2,3,4,9-tetrahydro-1H-pyrido[3,4-b]indol-1-yl)-6-methoxypyridin-2-yl)-N2-(3-fluoropropyl)ethane-1,2-diamine], 7.6 nM. Take `COc1cc(NCCNCCCF)ccc1[C@@H]1c2[nH]c3ccccc3c2C[C@@H](C)N1CC1(F)COC1` [Example 47, N1-(4-((1R,3R)-2-((3-fluorooxetan-3-yl)methyl)-3-methyl-2,3,4,9-tetrahydro-1H-pyrido[3,4-b]indol-1-yl)-3-methoxyphenyl)-N2-(3-fluoropropyl)ethane-1,2-diamine]: the half-inhibitory concentration (IC50) came to 27 nM. The result for `C[C@@H]1Cc2c([nH]c3ccccc23)[C@@H](c2ccc(OCCNCCCF)cc2)N1CC(F)F` [Example 56, N-(2-(4-((1R,3R)-2-(2,2-difluoroethyl)-3-methyl-2,3,4,9-tetrahydro-1H-pyrido[3,4-b]indol-1-yl)phenoxy)ethyl)-3-fluoropropan-1-amine] reads 2 nM; that for `COc1cc(OCCNCCCF)ccc1[C@@H]1c2[nH]c3ccccc3c2C[C@@H](C)N1CC1(F)CC1` [Example 11, 3-fluoro-N-(2-(4-((1R,3R)-2-((1-fluorocyclopropyl)methyl)-3-methyl-2,3,4,9-tetrahydro-1H-pyrido[3,4-b]indol-1-yl)-3-methoxyphenoxy)ethyl)propan-1-amine], 4.7 nM.

For the origin of these results see patent publication US10149839B2, “Chemical compounds” (AstraZeneca AB, priority 2016, dated 2018).
